Measurements published in article PMC11111404, “Discovery of potent small-molecule inhibitors of lipoprotein(a) formation” (Nature, 2024).

Sequences of proteins named here, by UniProt entry; tags and fusion partners are left off. Residues count along the entry.
UniProt Q01177, 20-812 limits assumed: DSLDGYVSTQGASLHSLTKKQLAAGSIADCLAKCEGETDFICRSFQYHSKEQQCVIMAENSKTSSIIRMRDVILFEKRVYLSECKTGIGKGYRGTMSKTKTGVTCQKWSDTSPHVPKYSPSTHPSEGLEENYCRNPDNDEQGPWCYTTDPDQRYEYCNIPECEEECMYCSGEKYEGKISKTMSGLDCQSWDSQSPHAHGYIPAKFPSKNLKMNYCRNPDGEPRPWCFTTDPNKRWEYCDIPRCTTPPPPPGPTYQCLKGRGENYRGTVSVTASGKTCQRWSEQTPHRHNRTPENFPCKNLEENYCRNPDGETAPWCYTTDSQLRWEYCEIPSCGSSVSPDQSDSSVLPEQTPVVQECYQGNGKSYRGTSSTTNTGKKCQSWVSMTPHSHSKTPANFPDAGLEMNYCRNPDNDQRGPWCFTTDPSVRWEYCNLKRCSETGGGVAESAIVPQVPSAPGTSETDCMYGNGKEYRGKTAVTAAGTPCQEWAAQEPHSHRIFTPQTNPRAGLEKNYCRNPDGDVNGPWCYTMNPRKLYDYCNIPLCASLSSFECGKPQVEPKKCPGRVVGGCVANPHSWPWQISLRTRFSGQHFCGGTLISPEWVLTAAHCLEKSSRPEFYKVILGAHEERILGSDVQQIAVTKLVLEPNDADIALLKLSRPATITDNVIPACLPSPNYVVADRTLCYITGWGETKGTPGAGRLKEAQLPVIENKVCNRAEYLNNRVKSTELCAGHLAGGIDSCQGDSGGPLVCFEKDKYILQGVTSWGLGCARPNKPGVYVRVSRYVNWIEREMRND

Tests used:
[1] = test system: Lp(a); assay: Lp(a) levels in LPA × ApoB100 transgenic mice; conditions: oral BID, five days
[2] = target: plasmin activity (Rattus norvegicus, UniProt Q01177); assay: Rat plasma plasmin (plasminogen) activity ex vivo after oral dosing; assay type: in vivo; conditions: rats treated orally at pharmacological doses
Protocol: (§1) Male Sprague Dawley rats (Charles River, average body weight 310 g, aged eight to nine weeks old) were housed in cages with a standard light cycle (12-h light, 12-h dark), at room temperature (22 ± 4 °C), with a relative humidity of 30–70%. Rats were identified by numbers on the cage cards. After arrival, rats were fed on a normal diet (Harlan Teklad diet 2014) and randomized to treatment groups (n = 5 per group) by baseline plasma plasminogen concentration and activity using a BRAT. LSN3441732 and LY3473329 were administered QD orally at three dose levels (3.7, 12.3 and 37 mg kg^−1; 3.2, 10.5 and 31.6 mg kg^−1 per dose, respectively) or vehicle (10 ml kg^−1, 1% HEC, 0.25% Tween-80, Antifoam) for four days. Terminal blood was drawn under general anaesthesia 24 h after the day-4 oral dose. […] The mixture was added and the plate was sealed and placed in a prewarmed plate reader, shaken, and the absorbance read every 30 s for 2 h. The maximum slope for each curve was determined and the percentage inhibition was calculated relative to untreated controls. Plasminogen protein was measured using ELISA kits for rat (Abcam ab157740) according to the manufacturer’s instructions. Plasminogen activity (percentage) and mass (µg ml^−1) in rat were analysed by ANOVA in JMP 16.1.0. […]

[3] = target: plasminogen (Rattus norvegicus, UniProt Q01177); assay: Rat plasma plasminogen concentration (ELISA) after oral dosing; assay type: in vivo; conditions: rats
Protocol: as §1

- plasma plasmin activity measured ex vivo [2]: decreased plasma plasmin activity
- plasma levels of plasminogen protein [3]: decreased in a dose-dependent manner
Structure (SMILES): O=C(O)[C@@H](Cc1cccc(CN(Cc2cccc(C[C@H](C(=O)O)[C@H]3CCNC3)c2)Cc2cccc(C[C@H](C(=O)O)[C@H]3CCNC3)c2)c1)[C@H]1CCNC1 [LY3473329]
- ED50 for Lp(a) reduction [1]: 3 mg/kg
